US10828265B2, “Formulations of propranolol and analogs as an amorphous melt or ionic liquid for transdermal drug delivery” (The Regents of the University of California, priority 2016, dated 2020)
Read-outs that look alike come from different tables or passages of the source.

Conditions: neat melt, SD of three measurements in parentheses
Description: Standard deviations of three measurements are provided in parentheses.
Viscosity was measured using 1-mL samples with a LC-ARES Test Station (TA Instruments, New Castle, Del.) and a cone (diameter: 25 mm; angle: 0.1 rad). The cone rotation rate was 10 s^−1 and viscosity was measured three times per sample at 25° C. and 37° C. Differential scanning calorimetry (DSC) was performed with a Q2000 DSC with 50 position autosampler (TA Instruments, New Castle, Del.). Sample size was 9-10 mg, and was weighed in an aluminum hermetic pan. Samples were heated from room temperature to 120° C. under N2 atmosphere followed by cooling to […] and subsequent heating back to 120° C. with a ramp rate of 10° C. per minute.

propranolol isobutyl sulfosuccinate [PRL:C4]
Propranolol Melt Viscosity (25° C.): 599.5 (6.5) Pa s | Propranolol Melt Viscosity (37° C.): 87.0 (0.7) Pa s
